From ChEMBL document CHEMBL4014325

Assay: Inhibition of calcium activated chloride channel in ATP-activated human HT-29 cells expressing YFP-H148Q/152L assessed as reduction in iodide influx preincubated for 10 mins followed by ATP addition by fluorescence assay
Outline: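 Endogenous non-TMEM16A CaCC in HT-29 cells expressing YFP, read by plate reader. Initial rate of I⁻ influx taken as a linear measure of channel function. IC₅₀ from concentration-inhibition data; n=3.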

Which IC50 does the source give for `Cc1ccccc1NC(=O)c1c(NC(=O)C(F)(F)Br)sc2c1CCCCC2` here?
The IC50 was 5.4 µM.

For `Cc1ccccc1NC(=O)c1c(NC(=O)C(F)(F)I)sc2c1CCCCC2`, which IC50 is on record?
Its IC50 is 3.5 µM.

With `Cc1ccccc1NC(=O)c1c(NC(=O)C(F)(F)Cl)sc2c1CCCCC2` as the molecule, how does the IC50 read?
Its IC50 is 9.5 µM.
